According to patent US5432157A, “Chrysospermins, active peptides from apiocrea chrysosperma having a pharmacological effect and a use thereof” (Hoechst Aktiengesellschaft, priority 1993, dated 1995):

How the values were obtained:
CTLL cells = assay: interleukin 2 control (internal test standard) on CTLL cells; assay type: cell-based
Method: CTLL cells→IL-2 detection
(§1) 4×10^3 of the abovementioned cells/100 μl+100 μl of supernatant=50%}+50 μl of supernatant=25%} total volume 200 μl per well+25 μl of supernatant=12.5%}+12.5 μl of supernatant=6.25%}
(§2) The plates are incubated for 48 hours and proliferation of the cells is ascertained by incorporation of radioactive tritiated thymidine in analogy with the procedure described under point 5.
(§3) Internal test standard: To check the magnitude of the content of interleukin 2 and 3 in the individual groups, interleukin 2 and interleukin 3 of known concentrations are included in the test as controls.

DA 1 cells = assay: interleukin 3 control (internal test standard) on DA 1 cells; assay type: cell-based
Method: DA 1 cells→IL-3 detection
as §1, §2, §3

Molecule	Counts (CTLL cells; 1.25 μg/ml, 3.125 U/ml)	Counts (CTLL cells; 2.5 μg/ml, 6.25 U/ml)	Counts (CTLL cells; 5 μg/ml, 12.5 U/ml)	Counts (CTLL cells; 10 μg/ml, 25 U/ml)	Counts (CTLL cells; 20 μg/ml, 50 U/ml)	Counts (CTLL cells; 40 μg/ml, 100 U/ml)	Counts (CTLL cells; 80 μg/ml, 200 U/ml)	Counts (DA 1 cells; 0.3 · 2%)	Counts (DA 1 cells; 0.6 · 125%)	Counts (DA 1 cells; 1.25%)	Counts (DA 1 cells; 2.5%)	Counts (DA 1 cells; 5%)	Counts (DA 1 cells; 10%)	Counts (DA 1 cells; 20%)
Interleukin 2: interleukin 2 of known concentrations included in the test as control	42,751	78,836	183,303	225,827	230,215	229,583	233,430	–	–	–	–	–	–	–
Interleukin 3: interleukin 3 of known concentrations included in the test as control (protein, UniProt P08700 20-152, looked up) Interleukin-3: APMTQTTPLKTSWVNCSNMIDEIITHLKQPPLPLLDFNNLNGEDQDILMENNLRRPNLEAFNRAVKSLQNASAIESILKNLLPCLPLATAAPTRHPIHIKDGDWNEFRRKLTFYLKTLENAQAQQTTLSLAIF	–	–	–	–	–	–	–	2,580	5,305	12,102	24,826	33,018	38,252	44,525
